Assay: Antiproliferative activity against human SKOV3-MDR1-M6/6 cells overexpressing wild type beta3 tubulin after 48 hrs by sulforhodamine B assay
Type: functional, cell-based
Details: SKOV3-MDR1-M6/6, 48 h

With CC(=O)O[C@H]1C(=O)[C@@]2(C)[C@H]([C@H](OC(=O)c3ccccc3)[C@]3(O)C[C@H](OC(=O)[C@H](O)[C@@H](NC(=O)c4ccccc4)c4ccccc4)C(C)=C1C3(C)C)[C@]1(OC(C)=O)CO[C@@H]1C[C@@H]2O [PACLITAXEL] the IC50 was 1190 nM.

Source: ChEMBL document CHEMBL3400114, “The design, synthesis and biological evaluation of conformationally restricted 4-substituted-2,6-dimethylfuro[2,3-d]pyrimidines as multi-targeted receptor tyrosine kinase and microtubule inhibitors as potential antitumor agents” (Bioorg Med Chem, 2015)
